According to PubChem BioAssay AID1381 (University of Pittsburgh Molecular Library Screening Center, 2008):
Only a part is listed here, and it is no random draw. Activity calls are given as the source filed them.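 The calls were made as follows: active = plate z-score of nuclear minus cytoplasmic receptor signal below a set negative limit, without overly bright fluorescence or cell loss (cut at about -3.5 in these data, passing the limit was not always enough); inactive = the rest, inconclusive results apart.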

Assay: inhibitors of GR-EGFP nuclear translocation, primary screen, dynein cargo transport inhibitor project, imaging, high-content, 3617.4 mouse cells (AID 1381)
Conditions: hits give low values, stimulated with dexamethasone, 1 µM; at 20 µM unless noted
In the case of `O=P1(Nc2ncccn2)COc2ccccc2OC1`, the z-score was inactive: -1.52. With `CN1CCCCC1COC(=O)C1(O)c2ccccc2CCc2ccccc21` (stereo unspecified) the z-score was inactive: 0.467. For `COc1ccccc1OP(C)(=O)Nc1c(C)cccc1C` (stereo unspecified), the z-score was inactive: -0.899 [at 50 µM]. With `Nc1cccc([As](=O)(O)c2ccccc2)c1` the z-score was inactive: 0.128. In the case of `CP(=O)(Nc1ccc(SC(F)(F)F)cc1)Oc1ccccc1` (stereo unspecified), the z-score was inactive: -0.728. With `CCCOc1ccc(NP(C)(=O)Oc2ccc(Cl)cc2)cc1` (stereo unspecified) the z-score was inactive: 3.63. In the case of `O=P1(Nc2ccc(Br)cn2)COc2ccccc2OC1`, the z-score was inactive: -1.4. With `Cc1ccc(OCC(=O)OC2CN3CCC2CC3)cc1` (stereo unspecified) the z-score was inactive: -0.189 [at 50 µM]. For `O=[As](O)(c1cccs1)c1cccs1`, the z-score was inactive: -0.0476. In the case of `Cc1nn(-c2ccccc2)c2c1P(=O)(N1CCOCC1)N(C)C(c1ccccc1)=N2` (stereo unspecified), the z-score was inactive: -0.152 [at 50 µM]. With `CC1CCC(C(C)C)C(OP(=O)(Nc2ccccn2)c2ccccc2)C1` (stereo unspecified) the z-score was inactive: -1.34. With `COc1cc(C2NCCC3(OCCO3)C2(C)C)cc(OC)c1OC.O=[N+]([O-])c1cc([N+](=O)[O-])c(O)c([N+](=O)[O-])c1` (stereo unspecified) the z-score was inactive: 1.06. For `O=[N+]([O-])c1cc([N+](=O)[O-])c(Nc2nnnn2CCO)c([N+](=O)[O-])c1`, the z-score was inactive: 1.26. For `CN(C)C1(CNC(=O)c2ccc(S(C)(=O)=O)cc2)CCCCC1`, the z-score was inactive: 0.71. For `CCOC(=O)C(CC)C1=NC(C)(C)Cc2ccccc21.O=[N+]([O-])c1cc([N+](=O)[O-])c(O)c([N+](=O)[O-])c1` (stereo unspecified), the z-score was inactive: 0.831. With `O=C(/C=C/c1ccccc1)OC1CN2CCC1CC2` (stereo unspecified) the z-score was inactive: 0.478. With `CC(C)/C=N\N=C(\N)N[N+](=O)[O-]` the z-score was inactive: -0.391. In the case of `O=[As](O)(c1ccccc1Br)c1ccccc1Br`, the z-score was inactive: -0.199. In the case of `CC1(CBr)Cn2c(nc3ccccc3c2=O)S1` (stereo unspecified), the z-score was inactive: -1.43 [at 50 µM]. For `Cc1nc2ccc3ccccc3c2s1.O=[N+]([O-])c1cc([N+](=O)[O-])c(O)c([N+](=O)[O-])c1`, the z-score was inactive: -0.403. In the case of `O=P1(Nc2ccccn2)COc2ccccc2OC1`, the z-score was inactive: -0.401. In the case of `O=[N+]([O-])c1cc([N+](=O)[O-])c(-n2nnc3ccccc32)c([N+](=O)[O-])c1`, the z-score was active: -4.48. With `CCOP(=O)(Nc1ccc(C)cn1)OCC` the z-score was inactive: -0.396. For `Clc1n[nH]nc1-c1nn[nH][15n]1`, the z-score was inactive: -0.258. In the case of `CC(C)(C)C(=O)NC(Sc1ncccn1)C(Cl)(Cl)Cl` (stereo unspecified), the z-score was inactive: 2.29. For `CP(=O)(Nc1cccc(Br)c1)Oc1ccccc1` (stereo unspecified), the z-score was inactive: -0.253. For `Cc1cc(C)cc(OP(C)(=O)Nc2ccccn2)c1` (stereo unspecified), the z-score was inactive: -0.0952 [at 50 µM]. For `Cc1ccc(NCCc2c([N+](=O)[O-])cc([N+](=O)[O-])cc2[N+](=O)[O-])cc1`, the z-score was inactive: -0.583. In the case of `Nc1cccc2c([As](=O)(O)O)cccc12`, the z-score was inactive: -0.27. For `CCCOP(=S)(Nc1nc(N)cc(=O)[nH]1)OCCC`, the z-score was inactive: 0.203. In the case of `Cc1ccc(C)c(NP(C)(=O)Oc2ccccc2)c1` (stereo unspecified), the z-score was inactive: -0.817 [at 50 µM]. In the case of `CCOP(=O)(Nc1cccc2ccccc12)OCC`, the z-score was inactive: 0.632. In the case of `O=C(OC1CN2CCC1CC2)c1ccc(Cl)cc1` (stereo unspecified), the z-score was inactive: 0.154. In the case of `COc1cc(C(=O)NCC2(N3CCOCC3)CCCCC2)cc(Cl)c1OC(C)C`, the z-score was inactive: 0.173. In the case of `O=[As](O)(O)c1cccnc1`, the z-score was inactive: 0.621. With `COc1ccccc1OP(C)(=O)Nc1cccc(Br)c1` (stereo unspecified) the z-score was inactive: -0.257. In the case of `O=[As](O)(c1cccc(O)c1)c1cccc(O)c1`, the z-score was inactive: -0.28. For `Cc1cccc(OCC(=O)OC2CN3CCC2CC3)c1` (stereo unspecified), the z-score was inactive: 0.109. With `Cc1cc(C)cc(OP(C)(=O)Nc2ccc(C)cc2C)c1` (stereo unspecified) the z-score was inactive: -1.42. For `CCOC(=O)c1ccc(NP(C)(=O)Oc2cc(C)cc(C)c2)cc1` (stereo unspecified), the z-score was inactive: -0.521. With `NC(=O)Nc1ccc([As](=O)(O)O)cc1` the z-score was inactive: -0.664. With `CN(C(=O)Cc1ccccc1)[C@@H]1CC[C@]2(CCCO2)C[C@H]1N1CCCC1` the z-score was inactive: -0.0902. In the case of `CCOP1(=S)c2c(C)nn(CCC#N)c2N=C(c2ccc(F)cc2)N1C` (stereo unspecified), the z-score was inactive: 0.0452. For `O=[N+]([O-])c1ccc2c(c1)nnn2O`, the z-score was inactive: 0.00203 [at 50 µM]. In the case of `CC1=NCCc2c1[nH]c1ccccc21.O=[N+]([O-])c1cc([N+](=O)[O-])c(O)c([N+](=O)[O-])c1`, the z-score was inactive: 0.174. With `O=C(O)c1cccc(Nc2c([N+](=O)[O-])cc([N+](=O)[O-])cc2[N+](=O)[O-])c1` the z-score was inactive: -0.00461. With `CCOP1(=S)c2c(C)nn(CCC#N)c2N=C(c2ccccc2F)N1C` (stereo unspecified) the z-score was inactive: 0.622 [at 50 µM]. In the case of `O=P(Nc1nccs1)(c1ccccc1)c1nc2ccccc2s1` (stereo unspecified), the z-score was inactive: -0.921. For `O=P(Nc1nccs1)(Oc1ccccc1)Oc1ccccc1`, the z-score was inactive: 0.105. With `CS(=O)(=O)c1cc([N+](=O)[O-])c2no[n+]([O-])c2c1` the z-score was inactive: -0.346. For `O=C(O)COc1ccc([As](=O)(O)O)cc1[N+](=O)[O-]`, the z-score was inactive: -0.403. With `Nc1ccccc1[As](=O)(O)c1ccccc1` the z-score was inactive: 0.25. With `CCOC(=O)c1ccc(NP(C)(=O)Oc2ccccc2)cc1` (stereo unspecified) the z-score was inactive: -0.266. In the case of `ClCCSc1nnc(-c2cccnc2)o1`, the z-score was inactive: -0.323 [at 50 µM]. With `COc1ccccc1OP(C)(=O)Nc1ccc(C)cc1` (stereo unspecified) the z-score was inactive: -0.16. With `Cc1ccc(NP(C)(=O)Oc2ccccc2)c(C)c1` (stereo unspecified) the z-score was inactive: -0.615. In the case of `CC(C)c1ccc(OP(=O)(Nc2ccccn2)Oc2ccccc2F)cc1` (stereo unspecified), the z-score was inactive: -0.559. In the case of `CCN(CC)C(=S)SC(NC=O)C(Cl)(Cl)Cl` (stereo unspecified), the z-score was inactive: -2.19. For `CC(C)NC(=O)NP(=O)(Oc1ccccc1)Oc1ccccc1`, the z-score was inactive: -0.423. With `COc1ccccc1OP(C)(=O)Nc1cc(Cl)ccc1C` (stereo unspecified) the z-score was inactive: 0.0362. With `O=[N+]([O-])c1cc([N+](=O)[O-])c(-c2ccn[nH]2)s1` the z-score was inactive: -1.12.
